System: HSA-LR DM1-mouse model
Conditions: HSA-LR mice, single injection

For “5′-CAGCAGCAGCAGCAGCAGCAG-3′ [compound 221]”, the “time to recover from disorientation after injection” value was at most 15 min.
“5′-CAGCAGCAGCAGCAGCAGCAG-3′-PEG4COT-click-K-miniPEG2-Lys(FfFGRGRE)-miniPEG2-VKRKKKP-Ac [221-1106]” was tested, and the “recovery from disorientation after injection” value (C = 20 mpk, D = 40 mpk) was “took several hours to recover”.
